# PubChem BioAssay AID2718 (Broad Institute, 2010)
# By UniProt entry, the sequences of proteins in these tests, tags left out.
# UniProt O15379, whole entry: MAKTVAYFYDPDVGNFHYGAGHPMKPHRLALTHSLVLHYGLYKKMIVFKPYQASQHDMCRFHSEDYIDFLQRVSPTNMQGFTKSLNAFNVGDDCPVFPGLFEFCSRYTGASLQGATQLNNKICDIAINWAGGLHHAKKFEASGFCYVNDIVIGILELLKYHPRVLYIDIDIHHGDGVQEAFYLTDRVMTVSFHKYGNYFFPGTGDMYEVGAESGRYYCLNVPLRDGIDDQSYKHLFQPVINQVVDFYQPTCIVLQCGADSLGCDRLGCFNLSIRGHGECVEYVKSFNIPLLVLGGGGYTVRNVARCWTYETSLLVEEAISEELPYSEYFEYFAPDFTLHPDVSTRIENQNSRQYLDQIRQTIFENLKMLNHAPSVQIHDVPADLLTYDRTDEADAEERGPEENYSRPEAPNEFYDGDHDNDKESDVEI
# Only a part is listed here, and it is no random draw. Calls of active or inactive are those of the source. No stated cut-off is given here; in the data, active means inhibition above about 26% (passing the limit was not always enough); inconclusive means no clear call, values can overlap the other calls.
# Molecular target: Histone deacetylase 3 (Homo sapiens) (UniProt O15379)
# Experiment: inhibition of human HDAC3 enzyme activity – biochemical, fluorescence, cell-free homogeneous, primary screen (AID 2718)
# Details: recombinant HDAC3, fluorogenic peptide/trypsin coupled, at 8.3 µM, active compounds read high
row,Structure (SMILES),inhibition
1,O=[N+]([O-])c1cc([N+](=O)[O-])c(-n2nnc3ccccc32)c([N+](=O)[O-])c1,inactive: 4.42%
2,Cc1nc2ccc3ccccc3c2s1.O=[N+]([O-])c1cc([N+](=O)[O-])c(O)c([N+](=O)[O-])c1,inactive: 2.04%
3,O=[N+]([O-])c1cc([N+](=O)[O-])c(-c2cnn(-c3ccccc3)c2)c([N+](=O)[O-])c1,inactive: -3.62%
4,CC1=C2N=C(C=C3N=C(C(C)=C4[N-][C@@](C)([C@@H]5N=C1[C@](C)(CCC(=O)NC[C@@H](C)OP(=O)([O-])O[C@H]1[C@@H](O)[C@@H](n6cnc7cc(C)c(C)cc76)O[C@@H]1CO)[C@H]5CC(N)=O)[C@@](C)(CC(N)=O)[C@@H]4CCC(N)=O)[C@@](C)(CC(N)=O)[C@@H]3CCC(N)=O)C(C)(C)[C@@H]2CCC(N)=O.[C-]#N.[Co+3],inactive: 4.64%
5,O=[N+]([O-])c1cc([N+](=O)[O-])c(Nc2nnnn2CCO)c([N+](=O)[O-])c1,inactive: 1.93%
6,CCCOc1ccc(NP(C)(=O)Oc2ccc(Cl)cc2)cc1 (stereo unspecified),inactive: 1.19%
7,CP(=O)(Nc1ccc(SC(F)(F)F)cc1)Oc1ccccc1 (stereo unspecified),inactive: 5.22%
8,COc1ccccc1OP(C)(=O)Nc1c(C)cccc1C (stereo unspecified),inactive: -3.39%
9,CN1CCCCC1COC(=O)C1(O)c2ccccc2CCc2ccccc21 (stereo unspecified),inactive: -0.214%
10,O=C(O)c1cccc(Nc2c([N+](=O)[O-])cc([N+](=O)[O-])cc2[N+](=O)[O-])c1,inactive: 14.5%
11,CC1=NCCc2c1[nH]c1ccccc21.O=[N+]([O-])c1cc([N+](=O)[O-])c(O)c([N+](=O)[O-])c1,inactive: 5.92%
12,CCOC(=O)c1ccc(NP(C)(=O)Oc2cc(C)cc(C)c2)cc1 (stereo unspecified),inactive: 10.3%
13,Cc1cc(C)cc(OP(C)(=O)Nc2ccc(C)cc2C)c1 (stereo unspecified),inactive: 4.96%
14,COc1ccccc1OP(C)(=O)Nc1cccc(Br)c1 (stereo unspecified),inactive: -8.52%
15,Cc1ccc(C)c(NP(C)(=O)Oc2ccccc2)c1 (stereo unspecified),inactive: -2.79%
16,Cc1cc(C)cc(OP(C)(=O)Nc2ccccn2)c1 (stereo unspecified),inactive: 0.172%
17,CP(=O)(Nc1cccc(Br)c1)Oc1ccccc1 (stereo unspecified),inactive: 3.98%
18,CCN(CC)CCCOC(=O)C(O)(c1ccccc1)c1ccccc1,inactive: 4.33%
19,O=[N+]([O-])c1ccc2c(c1)C=Nc1ccccc1O2,inactive: -1.68%

row,Structure (SMILES),inhibition
1,CC(C)(C)c1ccc(OP(C)(=O)Nc2ccc(SC(F)(F)F)cc2)cc1 (stereo unspecified),active: 32.6%
2,O=[N+]([O-])c1cc([N+](=O)[O-])c(Nc2cccnc2)c([N+](=O)[O-])c1,inactive: 9.78%
3,Cc1cc(C)cc(OP(C)(N)=O)c1 (stereo unspecified),inactive: -10.2%
4,COc1ccc(OP(C)(=O)Nc2cccc(F)c2)cc1 (stereo unspecified),inactive: -4.01%
5,COc1ccccc1OP(C)(=O)Nc1cc(Cl)ccc1C (stereo unspecified),inactive: 5.02%
6,Cc1ccc(NP(C)(=O)Oc2ccccc2)c(C)c1 (stereo unspecified),inactive: -0.935%
7,COc1ccccc1OP(C)(=O)Nc1ccc(C)cc1 (stereo unspecified),inactive: -7.55%
8,CCOC(=O)c1ccc(NP(C)(=O)Oc2ccccc2)cc1 (stereo unspecified),inactive: -0.937%
9,CP(=O)(Nc1ccccc1Br)Oc1ccccc1 (stereo unspecified),inactive: 4.44%
10,COc1ccccc1OP(C)(=O)Nc1ccccc1 (stereo unspecified),inactive: -2.17%
11,CP(=S)(Nn1cnnc1)Oc1ccccc1 (stereo unspecified),inactive: 3.33%
12,Cc1cc(C)cc(OP(C)(=O)Nc2ccc(SC(F)(F)F)cc2)c1 (stereo unspecified),inactive: 3.28%
13,CP(=O)(NC(=O)Nc1ccccc1)Oc1ccccc1 (stereo unspecified),inactive: -2.66%
14,CCc1ccc(OP(C)(=O)N2CCN(c3ccc([N+](=O)[O-])cc3)CC2)cc1 (stereo unspecified),inactive: 4.65%
15,CP(=O)(Oc1ccccc1)OC(c1ccccc1)C(F)(F)F (stereo unspecified),inactive: 3.49%
16,Cc1cccc(C)c1OP(C)(=O)Nc1ccc(SC(F)(F)F)cc1 (stereo unspecified),inactive: 4.12%
17,CP(=O)(Nc1ccccn1)Oc1ccc(Cl)cc1 (stereo unspecified),inactive: 4.37%
18,CCOC(=O)c1ccc(NP(C)(=O)Oc2ccc(OC)cc2)cc1 (stereo unspecified),inactive: 5.53%
19,O=[N+]([O-])c1cc([N+](=O)[O-])c(O)c([N+](=O)[O-])c1.c1ccc(Oc2ccncc2)cc1,inactive: 6.94%

row,Structure (SMILES),inhibition
1,CCOP(C)(=S)SCC(=O)NC(C)C(=O)O (stereo unspecified),inactive: -7.84%
2,O=C(OCCCN1CCCC1)C(O)(c1ccccc1)C1CCCCC1 (stereo unspecified),inactive: -2.47%
3,COc1ccccc1OP(C)(=O)Nc1c(C)n(C)n(-c2ccccc2)c1=O (stereo unspecified),inactive: 0.611%
4,CCc1ccc(OP(C)(=O)Nc2cccnc2)cc1 (stereo unspecified),inactive: -13.8%
5,CCN(CC)CC(O)COC(=O)C(O)(c1ccccc1)C1CCCCC1 (stereo unspecified),inactive: -1.7%
6,CN(C)C(=O)c1c([N+](=O)[O-])cc([N+](=O)[O-])cc1[N+](=O)[O-],inactive: -1.22%
7,COc1ccccc1OP(C)(=O)Nc1ccccc1Br (stereo unspecified),inactive: -3.94%
8,CC(C)(C)c1ccc(OP(C)(=O)O)cc1,inactive: -1.09%
9,CP(=O)(Nc1ccc(Cl)cc1)Oc1ccc(F)cc1 (stereo unspecified),inactive: -0.64%
10,CCOC(=O)c1ccc(NP(C)(=O)Oc2ccc(Cl)cc2)cc1 (stereo unspecified),inactive: -2.16%
11,CP(=O)(OC12CC3CC(CC(C3)C1)C2)OC12CC3CC(CC(C3)C1)C2,inactive: 2.42%
12,Nc1ccc2c(ccc3cccnc32)n1.O=[N+]([O-])c1cc([N+](=O)[O-])c(O)c([N+](=O)[O-])c1,inactive: -11%
13,COc1ccccc1OP(C)(=O)Nc1ccc(C)c(C)c1 (stereo unspecified),inactive: 0.322%
14,COc1ccc(OP(C)(=O)Nc2ccccc2Br)cc1 (stereo unspecified),inactive: 6.48%
15,Cc1cc(C)cc(OP(C)(=O)Nc2cccc(C(F)(F)F)c2)c1 (stereo unspecified),inactive: 11.3%
16,CP(=O)(Nc1ccc(Cl)cc1Cl)Oc1ccccc1 (stereo unspecified),inactive: 3.55%
17,CP(=O)(OCCOc1ccccc1)OCCOc1ccccc1,inactive: -5.32%
18,Cc1nc2ccc3ccccc3c2o1.O=[N+]([O-])c1cc([N+](=O)[O-])c(O)c([N+](=O)[O-])c1,inactive: 3.64%
